Experimental data: patent US12083178B2, “Anti-fibroblastic fluorochemical emulsion therapies” (priority 2010, dated 2024)

Assay: Delivery and retention of Herceptin at the tumor, immunohistochemistry of tumor biopsies
Type: in vivo
Conditions: detection antibody dilution 1:1500; aerosol delivery; FIG. 6, FIG. 7A
Protocol: The ability of aerosolized fluorochemicals to deliver bioagents to a target and enhance their retention at that site makes them a novel therapeutic agent. To analyze the effectiveness of fluorochemicals as a delivery vehicle, different amounts of a bioactive agent were administered to a subject and the target site and agent retention were examined.
In particular, an aerosolized fluorocarbon emulsion containing the anti-cancer agent Herceptin was administered to a subject. The aerosol contained 60% perflubron/egg yolk phospholipid emulsion. Tumor biopsies were collected and analyzed using immunohistochemistry techniques and antibodies for detecting Herceptin. Herceptin was detected using a dilution of 1:1500 of antibody in tumors collected from subjects treated with Herceptin only (FIG. 6). […] In these tumors, Herceptin could be detected using a dilution as much as 1:30,000 (FIG. 7B).

**Q.** Which “Herceptin detection in tumor biopsies by immunohistochemistry” value does the source give for trastuzumab [Herceptin] here?
**A.** detected
